Laboratory results from patent US20250099433A1, “COMPOSITION AND METHOD FOR TREATMENT OF GRAM NEGATIVE BACTERIAL INFECTION” (The Research Foundation for the State University of New York, priority 2021, published 2025).
Where “and” joins values, the source holds several entries; their conditions need not be identical. Identical values can stand only once. Like-named read-outs stand apart in the source and are kept apart here.

Protein sequences, listed by entry. Tags and fused reporters are not part of them. Residues count along the entry.
UniProt P47205, 1-299: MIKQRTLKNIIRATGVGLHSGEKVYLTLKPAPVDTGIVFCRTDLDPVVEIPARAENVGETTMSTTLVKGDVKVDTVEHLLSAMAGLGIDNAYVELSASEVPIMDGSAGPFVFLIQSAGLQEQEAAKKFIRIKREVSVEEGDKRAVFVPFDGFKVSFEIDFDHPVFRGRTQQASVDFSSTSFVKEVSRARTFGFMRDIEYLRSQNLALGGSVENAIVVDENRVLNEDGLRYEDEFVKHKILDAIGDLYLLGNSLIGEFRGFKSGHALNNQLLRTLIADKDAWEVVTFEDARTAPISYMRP

Tests used:
[1] = biological target: T1, paLpxC (Pseudomonas aeruginosa (strain ATCC 15692 / DSM 22644 / CIP 104116 / JCM 14847 / LMG 12228 / 1C / PRS 101 / PAO1), UniProt P47205); assay: Spin column (Penefsky) residence time assay on paLpxC; assay type: binding; settings: 37° C., first-order fit
Description: FIG. 14. Spin-column assay. A spin-column assay was used to quantify the residence time of inhibitors on paLpxC at 37° C. […] Samples were then subjected to size exclusion chromatography at different times using a Spin-Trap G-25 column (800×g for 2 min). […] Preincubated solutions of enzyme (10 μM) and inhibitor (10 or 20 μM) were diluted 200-fold into a solution of PT855 (1 μM) at 37° C. Aliquots of this solution were withdrawn at various times and subjected to centrifugal gel filtration chromatography using PD SpinTrap™ G-25 columns. The fluorescence of the eluate was quantified, and the data were fit to a single exponential equation to obtain koff (FIG. 14, Tables 4 and 5).
Inhibitor Residence Time Measurements using a Spin Column Assay. […] Subsequently, 10 μL of the incubation mixture was diluted into 2 mL of the same buffer containing 1 μM of PT855, and 100 μL of this mixture was then aliquoted at different time points and loaded onto a PD SpinTrap™ G-25 column (Cytiva) that had been equilibrated with buffer prior to sample loading. […] The fluorescence intensities corresponding to loading diluted EI without the fluorescent competitor and loading the competitor alone were measured separately to determine the dynamic range and endpoint of the assay. […] Rates were calculated by fitting the change in fluorescence intensity over time to a one-phase association equation in GraphPad Prism.

[2] = biological target: T1, paLpxC; assay type: binding; settings: for tR (min) Fluorescence assay: 37° C., tR = 1/koff; for ΔF as % of the change when free enzyme was added: EI complex diluted into 200 nM PT855

Structure (SMILES)	k (min^−1), spin-column assay [1]	tR (min) Fluorescence assay [2]	tR (min) Fluorescence assay ([2]; listed as PT91)	ΔF as % of the change when free enzyme was added [2]
CC(CCn1ccc(-c2ccccc2)cc1=O)(C(=O)NO)S(C)(=O)=O (racemic) [PT901, N-hydroxy-2-methyl-2-(methylsulfonyl)-4-(2-oxo-4-phenylpyridin-1(2H)-yl)butanamide]	0.14 ± 0.06 min⁻¹	5 min and 5.1 ± 0.2 min and 5.0 ± 0.2 min	5.1 min	~98%
COc1ccc(-c2ccn(CCC(C)(C(=O)NO)S(C)(=O)=O)c(=O)c2)cc1 (racemic) [PT902, N-hydroxy-4-(4-(4-methoxyphenyl)-2-oxopyridin-1(2H)-yl)-2-methyl-2-(methylsulfonyl)butanamide]	–	15 min and 15.0 ± 1.5 min	–	52%
